SMILES strings stand for the structures.

The text below walks through data of patent US7488822B2 (Wyeth, priority 1999, dated 2009).

This assay has as its system rat uterine decidualization. Nature of the assay: Rat decidualization assay. As to conditions: decrease in EC50 progesterone induced decidual response.

With `CC1(C)OC(=O)Nc2ccc(-c3ccc(F)c(C#N)c3)cc21`, the “Decidualization IC50” value is 6.96 mg/kg.
